Assay [1] can be described thus: Inhibitory activity against Serine/Threonine Protein Phosphatase (PP2C); Precipitation.
A short description of assay [2]: Inhibitory activity against Serine/Threonine Protein Phosphatase (Lambda protein phosphatase); Precipitation.

With `O=P(O)(O)Cc1ccccc1`, the NA result in assay [1] and in assay [2] was “Insoluble” in each case.

Source of the values: ChEMBL document CHEMBL1144877, “A comparison of phosphonothioic acids with phosphonic acids as phosphatase inhibitors” (2003).
